# From patent US20250026750A1, “SULFOXIMINE-CONTAINING ATR INHIBITOR COMPOUND” (Chia Tai Tianqing Pharmaceutical Group Co., Ltd., priority 2021, published 2025)
# Chains of the proteins cited; added tags and fusions are not shown.
# UniProt Q13535, whole entry: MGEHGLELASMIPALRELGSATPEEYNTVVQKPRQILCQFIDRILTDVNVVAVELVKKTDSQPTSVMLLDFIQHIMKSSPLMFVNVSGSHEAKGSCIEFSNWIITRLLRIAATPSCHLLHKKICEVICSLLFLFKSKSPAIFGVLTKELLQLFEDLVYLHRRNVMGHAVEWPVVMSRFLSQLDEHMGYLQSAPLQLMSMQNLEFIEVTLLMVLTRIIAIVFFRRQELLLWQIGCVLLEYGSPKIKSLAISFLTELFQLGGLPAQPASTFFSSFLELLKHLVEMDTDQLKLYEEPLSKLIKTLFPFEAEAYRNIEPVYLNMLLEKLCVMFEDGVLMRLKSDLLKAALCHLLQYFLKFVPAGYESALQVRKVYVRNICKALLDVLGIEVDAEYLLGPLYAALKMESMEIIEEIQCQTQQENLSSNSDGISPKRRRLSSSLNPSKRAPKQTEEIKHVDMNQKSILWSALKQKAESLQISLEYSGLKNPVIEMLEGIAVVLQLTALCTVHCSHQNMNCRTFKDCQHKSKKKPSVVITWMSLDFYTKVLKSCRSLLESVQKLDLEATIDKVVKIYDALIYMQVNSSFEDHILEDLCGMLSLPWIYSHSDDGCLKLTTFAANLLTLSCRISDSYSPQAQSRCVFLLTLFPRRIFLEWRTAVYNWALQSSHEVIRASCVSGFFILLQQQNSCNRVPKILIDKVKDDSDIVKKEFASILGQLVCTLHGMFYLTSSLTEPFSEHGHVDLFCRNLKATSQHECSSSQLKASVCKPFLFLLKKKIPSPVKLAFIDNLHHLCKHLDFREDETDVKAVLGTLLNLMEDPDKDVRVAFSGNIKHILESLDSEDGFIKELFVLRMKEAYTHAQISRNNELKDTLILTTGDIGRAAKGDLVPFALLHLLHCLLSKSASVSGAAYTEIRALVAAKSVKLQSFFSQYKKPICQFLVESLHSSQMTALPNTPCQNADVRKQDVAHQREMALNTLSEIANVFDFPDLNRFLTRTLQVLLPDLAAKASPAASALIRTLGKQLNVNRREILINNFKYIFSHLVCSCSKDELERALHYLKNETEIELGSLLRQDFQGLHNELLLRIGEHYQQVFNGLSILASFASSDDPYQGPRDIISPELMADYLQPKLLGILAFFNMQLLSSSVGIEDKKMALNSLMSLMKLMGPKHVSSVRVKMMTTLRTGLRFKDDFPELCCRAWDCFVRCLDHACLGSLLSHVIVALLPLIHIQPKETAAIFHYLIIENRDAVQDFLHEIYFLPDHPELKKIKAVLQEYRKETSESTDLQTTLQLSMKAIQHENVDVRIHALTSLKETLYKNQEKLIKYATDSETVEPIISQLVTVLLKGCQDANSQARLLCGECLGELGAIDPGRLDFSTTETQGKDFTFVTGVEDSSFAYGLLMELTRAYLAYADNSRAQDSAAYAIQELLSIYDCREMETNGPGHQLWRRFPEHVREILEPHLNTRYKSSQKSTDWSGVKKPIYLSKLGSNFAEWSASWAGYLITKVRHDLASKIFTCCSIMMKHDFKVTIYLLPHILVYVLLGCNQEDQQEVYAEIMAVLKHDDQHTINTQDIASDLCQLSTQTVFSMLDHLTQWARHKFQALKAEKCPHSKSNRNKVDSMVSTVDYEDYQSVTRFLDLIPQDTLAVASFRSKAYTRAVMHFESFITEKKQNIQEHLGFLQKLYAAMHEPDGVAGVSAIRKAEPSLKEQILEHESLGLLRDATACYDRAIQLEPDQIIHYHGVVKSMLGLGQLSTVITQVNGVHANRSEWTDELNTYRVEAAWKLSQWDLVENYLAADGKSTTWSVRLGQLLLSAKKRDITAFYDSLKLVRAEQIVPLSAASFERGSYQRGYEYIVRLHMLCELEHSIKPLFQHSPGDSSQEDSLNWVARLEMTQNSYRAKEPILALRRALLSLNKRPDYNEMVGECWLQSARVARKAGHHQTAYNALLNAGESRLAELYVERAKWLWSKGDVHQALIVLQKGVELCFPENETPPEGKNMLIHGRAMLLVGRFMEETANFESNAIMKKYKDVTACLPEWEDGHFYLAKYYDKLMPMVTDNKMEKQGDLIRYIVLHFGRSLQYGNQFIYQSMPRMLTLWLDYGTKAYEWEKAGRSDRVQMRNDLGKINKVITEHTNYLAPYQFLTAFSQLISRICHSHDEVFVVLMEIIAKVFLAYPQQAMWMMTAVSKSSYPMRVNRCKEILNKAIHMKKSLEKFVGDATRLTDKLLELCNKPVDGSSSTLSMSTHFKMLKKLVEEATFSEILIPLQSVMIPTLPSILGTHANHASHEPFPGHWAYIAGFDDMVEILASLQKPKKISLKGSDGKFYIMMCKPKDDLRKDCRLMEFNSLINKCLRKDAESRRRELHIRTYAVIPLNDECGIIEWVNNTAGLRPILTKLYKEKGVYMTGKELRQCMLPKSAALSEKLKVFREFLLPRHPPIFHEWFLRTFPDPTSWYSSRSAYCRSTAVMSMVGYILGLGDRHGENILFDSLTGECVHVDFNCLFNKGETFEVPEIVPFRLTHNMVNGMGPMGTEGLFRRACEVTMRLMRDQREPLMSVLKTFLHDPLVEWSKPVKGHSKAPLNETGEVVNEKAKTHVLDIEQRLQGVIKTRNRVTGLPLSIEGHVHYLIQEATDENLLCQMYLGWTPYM
# UniProt Q8WXE1, whole entry partner: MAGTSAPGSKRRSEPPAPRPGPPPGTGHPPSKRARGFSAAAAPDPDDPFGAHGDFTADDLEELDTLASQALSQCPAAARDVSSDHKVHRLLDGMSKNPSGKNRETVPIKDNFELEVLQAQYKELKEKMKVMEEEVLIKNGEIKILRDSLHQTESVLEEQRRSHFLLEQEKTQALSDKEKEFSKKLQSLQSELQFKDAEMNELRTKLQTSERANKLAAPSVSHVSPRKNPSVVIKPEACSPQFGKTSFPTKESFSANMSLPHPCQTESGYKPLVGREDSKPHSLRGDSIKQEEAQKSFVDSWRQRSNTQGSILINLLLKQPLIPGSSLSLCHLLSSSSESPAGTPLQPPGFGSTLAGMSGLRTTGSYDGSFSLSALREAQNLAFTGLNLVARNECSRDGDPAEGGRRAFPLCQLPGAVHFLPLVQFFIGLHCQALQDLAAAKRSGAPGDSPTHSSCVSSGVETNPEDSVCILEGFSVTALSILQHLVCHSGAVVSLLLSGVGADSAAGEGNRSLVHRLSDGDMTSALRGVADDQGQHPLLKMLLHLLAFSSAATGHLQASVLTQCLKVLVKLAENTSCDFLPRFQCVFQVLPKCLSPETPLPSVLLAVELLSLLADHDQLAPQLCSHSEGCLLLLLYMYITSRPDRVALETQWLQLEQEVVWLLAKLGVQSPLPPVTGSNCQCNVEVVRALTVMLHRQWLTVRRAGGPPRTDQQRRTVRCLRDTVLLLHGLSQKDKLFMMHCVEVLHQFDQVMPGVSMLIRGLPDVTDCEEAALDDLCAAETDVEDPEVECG
# What was measured:
# [1] = In vitro liver microsomal stability; details: human liver microsomes, NADPH, 37° C.
# Method: A 200-μL final incubation system contained 20 μL of liver microsomes (protein concentration: 5 mg/mL), 20 μL of NADPH+MgCl2, 2 μL of a substrate, and 158 μL of PBS buffer. The proportion of the organic solvent was 1%. The assay was performed in duplicate (0.2 mL each) for each species. A 180-μL mixture of substrate and enzyme was prepared in each tube. After the mixture and NADPH were pre-incubated at 37° C. for 5 min, 20 μL of NADPH+MgCl2 was added and mixed. 50-μL samples were taken at 0, 15 and 60 min, and the reactions were stopped using ice-cold acetonitrile containing an internal standard.
# 50-μL incubated samples were taken, and 300 μL of internal standard-containing acetonitrile was added for precipitation. After 5 min of vortexing and shaking, centrifugation (13,000 rpm, 20° C.) was performed for 10 min. 80 μL of the supernatant was added to a 96-well plate and diluted with 80 μL of ultrapure water, and 1 μL of the dilution was injected for LC-MS/MS analysis.
# [2] = Pharmacokinetic evaluation of compounds in mice; details: ICR mice
# Method: ICR mice, weighing 18-22 g, were randomized into 4 groups of 9 after 3-5 days of acclimatization, and were administered intragastrically (IG) a test compound at a dose of 10 mg/kg and intravenously (IV) a test compound at a dose of 1 mg/kg.
# The test animals (ICR mice) were fasted for 12 h before the administration and given food 4 h after the administration, and they were given ad libitum access to water before, during and after the experiment.
# Orbital blood samples of about 0.1 mL were collected at 15 min, 30 min, 1 h, 2 h, 3 h, 4 h, 6 h, 8 h, 10 h and 24 h after the intragastric administration. Orbital blood samples of about 0.1 mL were collected at 5 min, 10 min, 30 min, 1 h, 2 h, 4 h, 6 h, 8 h, 10 h and 24 h after the intravenous administration. The blood sample collection was performed at 3-4 time points for each mouse, 3 mice/per time point. The collected whole blood was placed in EDTA-K2-containing centrifuge tubes and stored at 4° C., and, within 1 h, was centrifuged at 4° C. at 4000 rpm for 10 min to separate plasma. All plasma samples were collected and immediately stored at −20° C. for testing. 30 μL of a plasma sample to be tested and a standard-curve sample were collected, and 300 μL of an acetonitrile solution containing an internal standard (20 ng/mL diazepam) was added and well mixed by 5 min of shaking. The mixture was centrifuged at 13,000 rpm for 10 min, and 80 µL of the supernatant was collected and diluted with 80 μL of ultrapure water. After well mixing, 2 μL of the dilution was collected for liquid chromatography-mass spectrometry analysis, and pharmacokinetic parameters were calculated.
# ATR kinase = ATR kinase (Homo sapiens (Human), UniProt Q13535); experiment: Screening for in vitro inhibitory activity against ATR kinase; details: read-out: IC50 (nM), inhibitory activity against ATR kinase; 10 μM ATP, 0.1 μM U Light-poly GT substrate
# Method: A 50 ng/μL ATR stock solution was diluted with a kinase buffer (50 mM HEPES, 10 mM MgCl2, 2 mM DTT, 1 mM EGTA, 0.01% Tween 20), and 6 μL of 1.67×, 0.0835 ng/μL working solution was added to each well (final concentration: 0.05 ng/μL). Different compounds dissolved in DMSO were added to wells using a nanoliter pipettor, such that the final concentrations of the compounds were 1000 nM-0.24 nM and the concentrations in positive wells were 100 nM-0.024 nM (4-fold gradient, 7 concentrations in total). Meanwhile, a blank control well (containing no enzyme) and a negative control well (containing enzyme, with the vehicle DMSO added) were set. After the enzyme had reacted with the compound or vehicle for 30 min, a 5×, 50 μM ATP (final concentration: 10 μM) prepared with the kinase buffer and a 5×, 0.5 μM substrate (final concentration: 0.1 μM, U Light-poly GT) were 1:1 mixed, and the mixture was added to wells at 4 μL/well. After the plate was sealed with a sealing film and the plate was incubated at room temperature for 2 h, 5 μL of 4×, 40 mM EDTA (final concentration: 10 mM) was added to each well. […] Plate reading was performed on a PE instrument (excitation: 320 or 340 nm; emission: 665 nm), and four-parameter fitting and IC50 calculations were performed. […]
# [3] = plasma, IG 10 mg/kg / IV 1 mg/kg study
smiles,measurement,setting,value
"C[C@@H]1COCCN1c1cc(N=S(C)(=O)C2CC2)c2cnn(-c3ccn[nH]3)c2n1 (single isomer, unassigned)",Human liver microsome (Residual % at 60 min),[1],94.14%
same,IG half-life t1/2,[2]; intragastric 10 mg/kg,3.3 h
same,Area under plasma concentration-time curve AUC0-last,[2]; [3],10311 ng·h/mL
same,Peak concentration Cmax,[2]; [3],4633 ng/mL
same,Tissue distribution Vd,[2]; IG 10 mg/kg / IV 1 mg/kg study,1.38 L/kg
same,Absolute bioavailability F,[2]; IG 10 mg/kg vs IV 1 mg/kg,81%
same,IC50,ATR kinase,< 50 nM
